Drawing on ChEMBL document CHEMBL1833840, “RGD mimetics containing phthalimidine fragment as novel ligands of fibrinogen receptor” (Bioorg Med Chem Lett, 2011), this text covers IC50 for one compound.

For this test, the system named is Platelet. In words: Inhibition of ADP-induced platelet aggregation in human platelet rich plasma by Borns method. The class given is functional. The procedure, abridged: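 Human platelet-rich plasma stimulated with ADP, with aggregation followed by Born's method.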

With `N=C(N)NCCC[C@H](N)C(=O)NCC(=O)N[C@@H](CC(=O)O)C(=O)N[C@@H](CO)C(=O)O`, the IC50 is 31 µM.
